Measurements from US20240252520A1 (priority 2023, published 2024).

Tested on: diabetic db/db mice
Test: LNP-FGF2, LNP-IL-2, LNP-CHI3L1, LNP-IL-17A mRNA bandages in db/db mice (Example 15)
Assay type: in vivo, mouse
Description: The mRNAs and bandages used in these studies were the same as those described in Example 7 above, except that the IL-2 ORF7 mRNA was replaced with an mRNA encoding full length wildtype mouse IL-2 (SEQ ID NO: 14), designated here as “IL-2”. The new IL-2 mRNA had the same general structure as the mRNAs described in Example 7, i.e., full substitution of both Pseudo-U and 5-Methyl-C, a 5′ cap structure, a 5′ UTR, a 3′ UTR, a polyA tail, and it was not codon optimized. The IL-2 coding region in the IL-2 mRNA was encoded by SEQ ID NO: 13.
We then evaluated the efficacy of LNP-FGF2, LNP-IL-2, LNP-CHI3L1, and LNP-IL-17A mRNA treatment in diabetic db/db mice. This is the same db/db mouse model described in Example 7 above. Two 6-mm punch biopsy full-thickness wounds were created on the dorsum of 16-week-old diabetic db/db mice (FIG. 19A). Macroporous bandages loaded with 4 μg of LNP-FGF2, LNP-IL-2, LNP-CHI3L1, and LNP-IL-17A mRNA were topically applied on the wounds for 10 days. Blank bandages and bandages loaded with eGFP, CHI3L1 protein and IL-2 protein were also employed as additional controls. The wound size was measured every three days.

With “IL-2 protein: bandages loaded with IL-2 protein employed as additional control” the “wound healing during the whole period vs blank bandage (repeated measurement analysis)” value (4 μg bandage, D0 to D10) was “no differences in wound healing” and the “wound reduction on Day 10” value (Day 10, compared with blank) was “similar”.
